Data set [1] in a line: AUC (0 to infinity) in Sprague-Dawley rat at 25 mg/kg, po by LC-MS/MS method. It counts as ADME, organism-based. More on the design: dose 25 mg/kg, time infinity, route oral. As to conditions: in vivo. In a few lines:
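Female Sprague-Dawley rats (250–274 g), catheterised, 3 per compound, dosed by oral gavage at 25 mg/kg from a 10 mg/mL solution. Femoral-vein blood taken at 0, 15, 30, 45, 60, 120, 240 and 480 min into K2EDTA. Plasma protein-precipitated with an internal standard and quantified by LC–MS/MS against standards in rat plasma. Parameters by non-compartmental analysis.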

A further data set concerns Caco-2. In words: Efflux ratio in human Caco2 cells after 30 to 120 mins by HPLC method. It counts as ADME, cell-based. The method, boiled down: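 Caco-2 cells (passage 50–70) grown 21 days on Transwell inserts, used only where TEER >300. Apical buffer pH 6.0, basolateral pH 7.4, 60 min preincubation. Compound dosed from a 20 mM DMSO stock with lucifer yellow on the donor side. Samples analysed by HPLC. Papp = (dQ/dt)/(A·C0) from cumulative sampling. Efflux ratio from B–A and A–B values.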

A word on the AUC(0-inf): it is the area under the concentration-time curve extrapolated to infinity. A lower AUC(0-inf) goes with less exposure.

Regarding `CCN(CC)CC.Nc1ncnc2c1ncn2[C@@H]1O[C@H](CNS(=O)(=O)NC(=O)c2ccccc2O)[C@@H](O)[C@H]1O`, the area under the curve AUC(0-inf) in data set [1] is 1660 ng·h/mL. Further, the Ratio in the data set on Caco-2 is 0.69.

The values above are taken from ChEMBL document CHEMBL3588789, “Synthesis and Pharmacokinetic Evaluation of Siderophore Biosynthesis Inhibitors for Mycobacterium tuberculosis” (J Med Chem, 2015).
